System: M2-10B4 bone marrow stromal cells
Assay: osteogenic differentiation / ALP enzymatic activity in M2-10B4 bone marrow stromal cells
Format: cell-based
Conditions: cyclopamine (Cyc; 5 μM) alone, M2-10B4 cells, ± SD
Experimental: Osteogenic differentiation was assessed by the induction of alkaline phosphatase (ALP) enzymatic activity, as well as induced expression of osteogenic differentiation marker genes ALP, bone sialoprotein (BSP), and osterix (OSX).

CC1=C2C[C@H]3[C@@H](CC=C4C[C@@H](O)CC[C@@]43C)[C@@H]2CC[C@]12O[C@@H]1C[C@H](C)CN[C@H]1[C@H]2C [Cyc, cyclopamine, reference compound]
ALP Activity: 1 ± 1 units/mg protein

Reference: US9683009B2, “Bone-selective osteogenic oxysterol-bone targeting agents” (The Regents of the University of California, priority 2013, dated 2017)
